For 1 compound, Ki results are on record in BindingDB's records for 16116659 (University of Bristol, 2005).

Sequences of proteins named here, by UniProt entry; tags and fusion partners are left off.
UniProt P45568, whole entry, looked up: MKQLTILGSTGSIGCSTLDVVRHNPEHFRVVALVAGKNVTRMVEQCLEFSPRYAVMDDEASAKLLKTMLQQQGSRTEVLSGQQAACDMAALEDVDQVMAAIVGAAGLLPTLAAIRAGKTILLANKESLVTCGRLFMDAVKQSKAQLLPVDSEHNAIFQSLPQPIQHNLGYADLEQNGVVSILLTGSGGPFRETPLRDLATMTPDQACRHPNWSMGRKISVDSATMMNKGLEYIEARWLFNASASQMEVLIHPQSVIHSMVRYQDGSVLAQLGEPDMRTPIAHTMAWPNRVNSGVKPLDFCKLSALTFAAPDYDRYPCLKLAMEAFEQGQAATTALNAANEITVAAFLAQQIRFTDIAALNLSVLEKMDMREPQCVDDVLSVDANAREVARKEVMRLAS

The assay concerns the target 1-deoxy-D-xylulose 5-phosphate reductoisomerase (Escherichia coli (strain K12), UniProt P45568). As to the kind of experiment: Inhibition Assay. The conditions noted are these: pH 8.

As usually defined, the Ki is a dissociation constant, usually derived from enzyme kinetics or from competition with a known ligand. Read a high Ki as a looser hold on the target.

Take `CCP(=O)(O)O`: the Ki came to 18 mM.
